The entries are a selection whose mix differs from that of the whole data set. The source made the active and inactive calls.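 The calls were made as follows: active = inhibition of yeast growth at or above a set limit in either of two replicates at 10 µM; inactive = the rest.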

These results are taken from PubChem BioAssay AID463215 (Sanford-Burnham Center for Chemical Genomics, 2010).

The test is described as follows: growth inhibitors of wild-type TIM10 yeast, confirmation, counter-screen for tim10-1 synthetic lethality project, single concentration, luminescence, S. cerevisiae (AID 463215).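 Also: isogenic wild-type TIM10 control yeast grown in succinate dextrose medium; this counterscreen used the strain with wild-type TIM10; 0% = yeast with DMSO and 100% = medium wells lacking yeast.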 The following applies: S. cerevisiae tim10 strain growth, BacTiter-Glo luminescence, 24 h; at 10 µM; active compounds read high.
`CCOC(=O)N1CCC(Nc2ccc(F)cc2)CC1`: the inhibition was inactive: 2.25%.
